This assay deals with ATX (Rattus norvegicus, UniProt Q64610). Nature of the assay: Choline oxidase-coupled choline-release assay of LPC hydrolysis by ATX. The following applies: read-out: %Inhibition at 100 μM.

Consider 1 compound from paper PMC9059126, “Structure-Based Design of a Novel Class of Autotaxin Inhibitors Based on Endogenous Allosteric Modulators” (Journal of Medicinal Chemistry, 2022).

As a reminder, the inhibition is the change of the read-out against control, counted positive when it falls.

On to `COc1ccc(S(N)(=O)=O)cc1` [Compound 5], for which the inhibition at 100 µM amounted to 8%.
